Test results taken from US20220016215A1, “GIP RECEPTOR AGONIST PEPTIDE COMPOUNDS AND USES THEREOF” (TAKEDA PHAARMACEUTICAL COMPANY LIMITED, priority 2018, published 2022).

Chains of the proteins cited; added tags and fusions are not shown. Lines headed by an entry give the natural chain unless they say otherwise; changes in a name come on top.
UniProt P43220: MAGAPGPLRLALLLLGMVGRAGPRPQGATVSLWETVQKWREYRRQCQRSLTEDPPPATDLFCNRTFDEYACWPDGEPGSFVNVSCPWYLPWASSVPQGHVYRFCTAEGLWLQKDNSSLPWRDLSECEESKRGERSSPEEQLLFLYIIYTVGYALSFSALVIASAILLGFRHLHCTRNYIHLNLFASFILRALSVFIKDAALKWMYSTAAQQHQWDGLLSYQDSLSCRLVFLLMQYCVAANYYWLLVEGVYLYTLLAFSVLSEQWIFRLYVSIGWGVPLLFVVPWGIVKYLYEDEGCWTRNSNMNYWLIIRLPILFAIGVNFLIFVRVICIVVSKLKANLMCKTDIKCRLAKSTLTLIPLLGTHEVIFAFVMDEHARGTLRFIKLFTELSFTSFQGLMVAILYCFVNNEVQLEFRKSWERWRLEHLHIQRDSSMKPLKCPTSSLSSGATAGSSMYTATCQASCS

T1: human GIPR (Homo sapiens, UniProt P48546)
T1 construct: expressed in transfected cells
T1 sequence (P48546 22-466): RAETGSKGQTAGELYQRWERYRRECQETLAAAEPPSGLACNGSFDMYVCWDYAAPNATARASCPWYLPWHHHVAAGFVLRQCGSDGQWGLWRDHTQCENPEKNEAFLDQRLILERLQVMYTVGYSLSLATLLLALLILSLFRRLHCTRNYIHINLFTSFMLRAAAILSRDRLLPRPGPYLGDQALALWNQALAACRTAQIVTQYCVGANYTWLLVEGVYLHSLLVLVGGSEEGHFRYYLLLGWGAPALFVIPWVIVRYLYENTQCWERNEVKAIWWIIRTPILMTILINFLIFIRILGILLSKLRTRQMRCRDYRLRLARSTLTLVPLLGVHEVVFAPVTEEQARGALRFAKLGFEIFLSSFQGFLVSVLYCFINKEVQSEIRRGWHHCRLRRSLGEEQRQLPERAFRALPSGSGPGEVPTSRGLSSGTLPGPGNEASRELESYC

T2: human GIPR (human, UniProt P48546 22-466)
T2 sequence (looked up): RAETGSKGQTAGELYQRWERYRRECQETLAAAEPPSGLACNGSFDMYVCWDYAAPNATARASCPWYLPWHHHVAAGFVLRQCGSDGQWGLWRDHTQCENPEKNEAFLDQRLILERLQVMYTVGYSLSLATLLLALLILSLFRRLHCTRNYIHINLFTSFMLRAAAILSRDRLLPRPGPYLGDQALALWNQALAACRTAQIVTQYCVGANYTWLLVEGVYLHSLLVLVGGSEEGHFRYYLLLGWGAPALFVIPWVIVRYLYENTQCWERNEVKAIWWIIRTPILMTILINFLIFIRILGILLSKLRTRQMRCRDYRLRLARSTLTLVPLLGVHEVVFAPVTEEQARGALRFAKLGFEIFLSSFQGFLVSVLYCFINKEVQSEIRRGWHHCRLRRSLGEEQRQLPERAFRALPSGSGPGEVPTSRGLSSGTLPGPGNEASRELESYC


Assays:
human GIPR [1] = molecular target: T1, human GIPR; assay: Agonist activity on human GIPR, CRE-luciferase reporter assay (increase in intracellular cAMP as indicator); assay type: cell-based; settings: GLP1R EC50 / GIPR EC50
human GIPR [2] = molecular target: T2, human GIPR; assay: cell-based or functional assay
human GLP-1R = human GLP-1R (human, UniProt P43220 24-463); assay: cell-based or functional assay

| Molecule | Selectivity Ratio (B/A) (human GIPR [1]) | GIPR pEC50 (human GIPR [2]) | GIPR EC50 nM (A) (human GIPR [2]) [nM] | GLP1R EC50 nM (B) (human GLP-1R) [nM] | GLP1R pEC50 (human GLP-1R) |
| --- | --- | --- | --- | --- | --- |
| YAibEGTFTSDYSIAibLDKIAQ(Lys-(ethylene glycol)2-C20 diacid)AFVQWLIAGGPSSGAPPPS-NH2 [Compound 34] | 20 |  |  |  |  |
| YAEGTFISDYSIAMDKIHQQDFVNWLLAQK (D-Ala at 2; C-terminal -OH) [Compound No. 4] |  | 12.4 |  |  |  |
| YAEGTFISDYSIAMDKIHQQDFVNWLLAQKGKKNDWKHNIIQ (D-Ala at 2; Lys-(OEG-gGlu)2-Oda at 16; C-terminal -NH2) [Compound No. 13] |  | 10.6 | 0.024 | 513 | 6.29 |
